Reference: patent publication US20150125904A1, “PROBE INCORPORATION MEDIATED BY ENZYMES” (Massachusetts Institute of Technology, priority 2012, published 2015)

The chains behind the UniProt entries cited, without tags or fusion partners. Residues count along the entry.
UniProt P32099, 2-338 W38V: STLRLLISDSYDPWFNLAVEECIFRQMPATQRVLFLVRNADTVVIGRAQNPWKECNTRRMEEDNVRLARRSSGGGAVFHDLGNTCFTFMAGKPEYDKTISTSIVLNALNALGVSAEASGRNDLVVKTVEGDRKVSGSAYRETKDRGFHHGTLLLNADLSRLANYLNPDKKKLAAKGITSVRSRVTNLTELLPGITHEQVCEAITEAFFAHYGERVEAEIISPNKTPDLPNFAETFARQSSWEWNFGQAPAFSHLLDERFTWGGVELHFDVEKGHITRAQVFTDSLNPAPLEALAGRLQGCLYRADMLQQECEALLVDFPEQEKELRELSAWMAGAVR
UniProt P32099, 2-338 W38I: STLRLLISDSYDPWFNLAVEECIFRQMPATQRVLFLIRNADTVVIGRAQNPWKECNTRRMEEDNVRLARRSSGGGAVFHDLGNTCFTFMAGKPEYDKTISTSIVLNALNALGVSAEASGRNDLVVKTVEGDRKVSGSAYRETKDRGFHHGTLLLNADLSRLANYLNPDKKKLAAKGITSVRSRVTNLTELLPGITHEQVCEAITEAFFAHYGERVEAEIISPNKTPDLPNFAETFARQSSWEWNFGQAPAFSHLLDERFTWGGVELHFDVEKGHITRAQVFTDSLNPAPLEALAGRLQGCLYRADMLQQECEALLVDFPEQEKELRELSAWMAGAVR
UniProt P32099, 2-338 W38G: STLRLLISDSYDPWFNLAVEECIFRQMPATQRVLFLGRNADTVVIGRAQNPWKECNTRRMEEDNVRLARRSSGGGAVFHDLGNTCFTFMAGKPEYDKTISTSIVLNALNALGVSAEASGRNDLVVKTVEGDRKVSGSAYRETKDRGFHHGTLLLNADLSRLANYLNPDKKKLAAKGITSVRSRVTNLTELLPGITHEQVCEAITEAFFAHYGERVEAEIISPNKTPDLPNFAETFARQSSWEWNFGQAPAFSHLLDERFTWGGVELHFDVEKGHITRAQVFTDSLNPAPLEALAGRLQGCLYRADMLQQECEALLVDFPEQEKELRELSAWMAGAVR

Experiments:
[1] = biological target: W37VLplA (Escherichia coli, UniProt P32099, W38V)
Description: After 5, 10, 15 and 20 minutes, an aliquot was drawn from the reaction vial, quenched with 30 mM EDTA (final concentration) and the product quantified by HPLC as in Table 3. The plot of product concentration against time was fitted to a linear line whose slope corresponds to the initial velocity. The value of kcat was calculated from the Michaelis-Menten equation Vmax=(kcat)([Enzyme]) at substrate-saturating conditions. Measurements were performed in triplicate.

[2] = biological target: Trp37→Val LplA (W37VLplA) (Escherichia coli, UniProt P32099, W38V); settings: 30 min reaction, 500 μM probe; normalized to TCO2/Trp37→Val
Description: (§1) LplA protein was purified as previously described2 and stored at −80° C. in 20 mM Tris-HCl, pH 7.5 supplementated with 10% v/v glycerol. Reactions were quenched with 30 mM EDTA (final concentration) and resolved by HPLC (Varian ProStar) on a C-18 column using a linear gradient of 25-60% acetonitrile in H2O (with 0.1% v/v trifluoroacetic acid) over 14 minutes. Species were detected at 210 nm absorbance. Peaks corresponding to LAP and its trans-cyclooctene adducts were confirmed by ESI mass spectrometry. The extent of conversion was calculated from ratios of peak areas, neglecting minor extinction coefficient changes to LAP due to trans-cyclooctene ligation.
(§2) The relative abilities of wild-type and mutant ligases to ligate TCO1-3 onto LplA acceptor peptide (LAP) were measured by an HPLC assay after 30 min. reaction time. […] Errors, ±1 s. d.

[3] = biological target: Trp37→Ile LplA (Escherichia coli, UniProt P32099, W38I); settings: 30 min reaction, 500 μM probe; normalized to TCO2/Trp37→Val
Description: as §1, §2

[4] = biological target: Trp37→Gly LplA (Escherichia coli, UniProt P32099, W38G); settings: 30 min reaction, 500 μM probe; normalized to TCO2/Trp37→Val
Description: as §1, §2

O=C(O)CCCCNC(=O)O[C@H]1CC/C=C/CCC1 (stereo in doubt) [TCO2, rel-(1R-4E-pR)-cyclooct-4-ene-1-yl-N-pentanoic acid carbamate]
kcat slower than ligation of lipoic acid by the same enzyme [1]: 2 fold
Ligation efficiency (average, normalized product percentage), Trp37→Val [2]: 100.0 ± 8.3%
Ligation efficiency (average, normalized product percentage), Trp37→Ile [3]: 77.8 ± 1.6%
Ligation efficiency (average, normalized product percentage), Trp37→Gly [4]: 52.6 ± 1.1%
